# Assay results: PubChem BioAssay AID435022 (Sanford-Burnham Center for Chemical Genomics, 2010)
# The entries are a selection whose mix differs from that of the whole data set. The source made the active and inactive calls. Cut-off read from the data, not from the text of the source: active = inhibition above about 35%; inactive = the rest.
# Assay: inhibitors of PMA/ionomycin-induced NF-kB reporter, 697 cells, primary screen, B-cell NF-kB inhibitor project, cell-based, luminescence, uHTS (AID 435022)
# Conditions: 697 B-cell NF-kB luciferase reporter, 16 h, at 4 µM, stronger effect = higher value
row,Structure (SMILES),inhibition
1,CC(C)(C)OC(=O)N1CCC(N(C(=O)c2ccccc2)c2ccc(F)cc2)CC1,inactive: -4.23%
2,COc1ccc(C(=O)NCC2(N3CCCCC3)CCCCC2)c(OC)c1OC,inactive: -15.9%
3,COc1ccc(C(=O)NCC2(N3CCCCC3)CCCCC2)cc1,inactive: 5.93%
4,O=C(NCC1(N2CCCCC2)CCCCC1)c1cccs1,inactive: 1.83%
5,O=C(NCC1(N2CCCCC2)CCCCC1)c1ccc(=O)[nH]c1,inactive: 11.4%
6,CSc1ccccc1C(=O)NCC1(N2CCCCC2)CCCCC1,inactive: -30.6%
7,Cc1cc(C)cc(N(C(=O)c2ccccc2)C2CCN(C(=O)OC(C)(C)C)CC2)c1,inactive: -4.84%
8,O=C(NCC1(N2CCCCC2)CCCCC1)c1ccc(Cl)nc1,inactive: 12.4%
9,O=C(NCC1(N2CCOCC2)CCCCC1)c1cc2ccccc2o1,inactive: 5.41%
10,COc1ccc(Cl)cc1C(=O)NCC1(N2CCOCC2)CCCCC1,inactive: 5.48%
11,O=C(NCC1(N2CCCCC2)CCCCC1)c1ccc(Cl)s1,inactive: 19.3%
12,N#CC1(Nc2ccccc2)CCN(Cc2ccccc2)CC1,inactive: 10.9%
13,O=C(OC1CN2CCC1CC2)C1c2ccccc2Oc2ccccc21 (configuration not stated),inactive: -7.25%
14,CCOC(=O)N1CCC(Nc2ccc(OC)cc2)CC1,inactive: -13.5%
15,CCOc1ccc(C)cc1CN(CCCl)CCCl,inactive: -18.7%
16,COc1ccc(NC2CCN(CCc3ccccc3)CC2)c(OC)c1,inactive: 10.4%
17,CCOC(=O)N1CCC(Nc2ccc(F)cc2)CC1,inactive: -8.91%
18,CCCCOc1ccc(C(=O)NCC2(N3CCOCC3)CCCCC2)cc1,inactive: -58.6%
19,O=C(NCC1(N2CCCCC2)CCCCC1)c1ccc(F)cc1,inactive: 7.77%
20,Cc1ccc(OCC(C)C)c(CN(CCCl)CCCl)c1,inactive: -3.68%
21,CCOC(=O)N1CCC(Nc2cccc(C)c2)CC1,inactive: -6.22%
22,O=C(NCC1(N2CCCCC2)CCCCC1)c1ccc(OC(F)F)cc1,inactive: -8.17%
23,N#CC1(Nc2ccccc2)CCN(CCc2ccccc2)CC1,inactive: 18.7%

row,Structure (SMILES),inhibition
1,CCN1CCC(Nc2ccc(Cl)cc2)CC1,inactive: -4.79%
2,O=C(NCC1(N2CCCCC2)CCCCC1)c1cccc([N+](=O)[O-])c1,inactive: 4.77%
3,CSc1ccc(C(=O)NCC2(N3CCOCC3)CCCCC2)cc1,inactive: -17.9%
4,O=C(NCC1(N2CCCCC2)CCCCC1)c1cccc(C(F)(F)F)c1,inactive: -0.643%
5,COc1cc(C(=O)NCC2(N3CCCCC3)CCCCC2)ccc1OC(F)F,inactive: 12.5%
6,O=C(NCC1(N2CCOCC2)CCCCC1)c1cc(=O)[nH]c2ccccc12,inactive: -3.53%
7,CN1CCN(CCOC(=O)C(O)(c2ccccc2)c2ccccc2)CC1,inactive: -4.15%
8,CC(C)c1ccc(C(=O)NCC2(N3CCOCC3)CCCCC2)cc1,inactive: -38.3%
9,COc1ccc(NC2CCN(C(=O)OC(C)(C)C)CC2)cc1,inactive: -6.68%
10,CC(C)c1ccc(NC2CCN(C(=O)OC(C)(C)C)CC2)cc1,inactive: -59.6%
11,CN(C)c1cccc(C(=O)NCC2(N3CCCCC3)CCCCC2)c1,inactive: -1.11%
12,COc1ccc(CN(CCCl)CCCl)cc1Cl,inactive: 13.1%
13,O=C(NCC1(N2CCOCC2)CCCCC1)c1cc(F)c(F)cc1Cl,inactive: -0.658%
14,COc1cc(OC)c(C(=O)NCC2(N(C)C)CCCCC2)cc1OC,inactive: 4%
15,CN1CCC(Nc2cccc(F)c2)CC1,inactive: 14%
16,O=C(NCC1(N2CCCCC2)CCCCC1)c1cncc(Br)c1,inactive: 4.24%
17,COc1cc(C(=O)NCC2(N3CCOCC3)CCCCC2)cc(OC)c1C,inactive: -12.7%
18,O=C(NCC1(N2CCOCC2)CCCCC1)c1cc(Br)ccc1Cl,inactive: -5.08%
19,COc1ccc(C(=O)NCC2(N3CCOCC3)CCCCC2)cc1OC,inactive: 12.2%
20,CCOC(=O)N1CCC(Nc2ccc(C)cc2)CC1,inactive: -6.91%
21,N/C(=N\O)c1c(N)no[n+]1[O-],inactive: -11.1%
22,CCc1cc(C(=O)NCC2(N3CCCCC3)CCCCC2)sc1C,inactive: 17.4%
23,O=C(OC1CN2CCC1CC2)C1c2ccccc2C=Cc2ccccc21 (configuration not stated),inactive: 7.16%

row,Structure (SMILES),inhibition
1,N#Cc1ccc(C(=O)NCC2(N3CCCCC3)CCCCC2)cc1,inactive: 13.7%
2,CC(C)(C)OC(=O)N1CCC(N(C(=O)c2ccccc2)c2ccc(Cl)cc2)CC1,inactive: 1.94%
3,CN(C)C1(CNC(=O)c2cccc(C#N)c2)CCCCC1,inactive: -8.5%
4,CCCN1CCC(Nc2cc(OC)cc(OC)c2)CC1,inactive: -6.82%
5,c1ccc(CN2CCC(Nc3ccccc3)CC2)cc1,inactive: 5.76%
6,COc1cc(OC)cc(C(=O)NCC2(N3CCCCC3)CCCCC2)c1,inactive: 13.3%
7,Fc1ccccc1NC1CCN(Cc2ccccc2)CC1,inactive: 4.14%
8,Cc1ccc(C(=O)NCC2(N3CCCCC3)CCCCC2)o1,inactive: -6.12%
9,CCN1CCC(Nc2cccc(F)c2)CC1,inactive: 26.3%
10,CN(C)c1ccc(C(=O)NCC2(N3CCCCC3)CCCCC2)cc1,inactive: 13.4%
11,O=C(NCC1(N2CCCCC2)CCCCC1)c1ccco1,inactive: 12.8%
12,CN1CCC(Nc2ccc(F)c(Cl)c2)CC1,inactive: -3.18%
13,CCOc1ncccc1C(=O)NCC1(N2CCOCC2)CCCCC1,inactive: 2.46%
14,O=C(O)C1(Nc2ccccc2)CCN(Cc2ccccc2)CC1,inactive: -12.8%
15,CC(C)(C)OC(=O)N1CCC(Nc2ccccc2)CC1,inactive: 5.1%
16,CCCOc1ccc(C(=O)NCC2(N(C)C)CCCCC2)cc1,inactive: 18.2%
17,COc1cc(OC)cc(C(=O)NCC2(N3CCOCC3)CCCCC2)c1,inactive: -8.64%
18,COc1cccc(C(=O)N(c2cc(C)cc(C)c2)C2CCN(C(=O)OC(C)(C)C)CC2)c1,inactive: -25.3%
19,CCC(CO)(C(=O)OC1CN2CCC1CC2)c1ccccc1 (configuration not stated),inactive: 22.8%
20,CN1CCC(Nc2ccc(Cl)cc2)CC1,inactive: 12.9%
21,CCCOc1ccc(C)cc1CN(CCCl)CCCl,inactive: -9.77%
